Assays:
[1] = test system: E-selectin; experiment: E-selectin expression in endothelial cells (LSEC, HMEC-1, HUVEC); format: cell-based, human; conditions: 100 nM apelin, time course
[2] = molecular target: T1, apelin receptor (Homo sapiens, UniProt P35414); experiment: Plasmon waveguide resonance (PWR) ligand binding; conditions: HEK-apelin receptor cell membrane fragments on polylysine-treated sensor, 22 °C, n = 3
T1 sequence (P35414 1-380): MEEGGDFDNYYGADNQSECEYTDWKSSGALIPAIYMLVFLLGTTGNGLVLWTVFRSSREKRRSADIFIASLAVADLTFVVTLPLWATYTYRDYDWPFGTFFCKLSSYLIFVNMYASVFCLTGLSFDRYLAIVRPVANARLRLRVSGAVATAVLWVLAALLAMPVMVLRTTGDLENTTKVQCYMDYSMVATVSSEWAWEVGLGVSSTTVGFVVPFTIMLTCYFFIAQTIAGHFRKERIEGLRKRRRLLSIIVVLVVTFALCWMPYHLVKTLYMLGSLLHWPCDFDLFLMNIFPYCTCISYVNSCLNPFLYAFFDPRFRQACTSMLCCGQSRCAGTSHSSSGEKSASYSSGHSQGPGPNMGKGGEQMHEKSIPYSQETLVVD

apelin [reference compound] was tested, and the “E-selectin mRNA levels in LSEC” value [1] was “increased at 2 h, peaked at 6 h, and remained elevated even after 8 h” and the Kd [2] was ~100 pM.

— article PMC11904221, “Repression of apelin Furin cleavage sites provides antimetastatic strategy in colorectal cancer” (EMBO Molecular Medicine, 2025)
